{
  "sequences": {"note": "By UniProt entry, the sequences of proteins in these tests, tags left out.", "UniProt P97612, whole entry": "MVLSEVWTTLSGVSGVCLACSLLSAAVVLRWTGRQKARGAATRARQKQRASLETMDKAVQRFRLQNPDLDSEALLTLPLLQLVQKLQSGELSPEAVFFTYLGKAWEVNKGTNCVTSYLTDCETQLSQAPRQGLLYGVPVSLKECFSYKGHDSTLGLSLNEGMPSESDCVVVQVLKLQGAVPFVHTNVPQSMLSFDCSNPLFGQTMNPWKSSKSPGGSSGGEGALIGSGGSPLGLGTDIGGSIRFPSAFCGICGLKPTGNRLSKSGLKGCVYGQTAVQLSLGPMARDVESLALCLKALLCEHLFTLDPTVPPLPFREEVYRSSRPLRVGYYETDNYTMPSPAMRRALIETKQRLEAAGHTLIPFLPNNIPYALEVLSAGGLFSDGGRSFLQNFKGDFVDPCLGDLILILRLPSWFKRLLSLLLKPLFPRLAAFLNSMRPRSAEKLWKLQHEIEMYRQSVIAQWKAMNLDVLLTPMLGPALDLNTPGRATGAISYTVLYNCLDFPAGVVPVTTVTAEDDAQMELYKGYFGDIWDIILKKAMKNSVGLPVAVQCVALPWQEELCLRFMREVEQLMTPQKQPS"},
  "source": "paper PMC7795171",
  "about": "“In Silico and In Vitro Analysis of Major Cannabis-Derived Compounds as Fatty Acid Amide Hydrolase Inhibitors” (Molecules, 2020)",
  "target": "T1, rFAAH (Rattus norvegicus, UniProt P97612)",
  "T1 construct": "from tissue; host or cells: rat brain membranes",
  "test": "FAAH activity assay, rat brain membranes, [14C]AEA hydrolysis",
  "format": "biochemical",
  "conditions": "compound at 100 µm",
  "method": "Rat brains were homogenized in 50 mM Tris-HCl (50 mM, pH 7.4), and were centrifuged sequentially at 800× g and 20,000× g; then, the supernatants were discharged, and rFAAH activity was tested in membrane preparations incubated with 10 µM [^14C]AEA at 37 °C for 15 min (pH = 9.0). The reaction was stopped with a 1:1 (v/v) mixture of chloroform/methanol and the release of [^14C]ethanolamine in the aqueous phase was measured as reported. Purified human FAAH was assayed in the same way as rFAAH.",
  "data": [
    {"smiles": "C=C(C)[C@@H]1CCC(C)=C[C@H]1c1c(O)cc(CCCCC)cc1O", "note": "[CBD, cannabidiol, reference compound]", "values": [
      {"measurement": "% In Vitro Inhibition (At 100 µm)", "value": 94, "unit": "%"}
    ]}
  ]
}
